Assay results: patent US20140170125A1, “USE OF CARDIOTROPHIN-1 FOR THE TREATMENT OF KIDNEY DISEASES” (DIGNA Biotech, S.L., priority 2011, published 2014)

Assays:
[1] = test system: experimental model of iodinated contrast nephropathy; assay: Contrast-induced nephropathy: Gastrografin in rats sensitized with subtoxic gentamicin; details: agents without CT-1 protection or alone; vs control
Method: The rats were placed in individual metabolic cages where they had free access to food and drink. After two days of acclimatization, the 24-hour urine was collected in graduated cylinders. The urine collected was centrifuged during 8 minutes at 2,500 rpm, to clean it from residues not thereof, the clean urine was collected and it was stored at −80° C. for its later analysis.
The blood samples were obtained in capillaries with heparin by a small cut at the end of the tail. Five capillaries were extracted per rat (200 μL), and the capillaries were centrifuged in a microcentrifuge at 11,000 rpm during three minutes. Once centrifuged, the capillaries were broken with the aid of a file, by the cells-plasma limit. The plasma was extracted and stored in eppendorf tubes at −80° C. for its later analysis.
To measure kidney function, the plasma concentrations of creatinine and creatinine clearance, which is a measurement of the glomerular filtration rate, were determined. The creatinine clearance (CrCl) was calculated from the formula CrCl=UF×CrU/CrP, where UF is the urinary flow (ml/min), CrU the creatinine concentration in urine (mg/ml) and CrP the creatinine concentration in plasma (mg/ml). The creatinine concentration in urine and in plasma were measured by a semiautomatic analyser (Reflotron, Roche).
The concentration of urea in plasma was measured by specific reactive strips of a commercial kit, using a semiautomatic analyser (Reflotron, Roche).
The concentration of proteins in urine (proteinuria) was measured by Bradford's colorimetric method (Anal Biochem. 1976; 72:248-54). The urinary excretion of proteins (UEprot) in 24 hours was calculated by the formula: UEprot=Cprot×FU24 h, where Cprot is the concentration of proteins in urine (mg/mL) and FU24 h the urinary flow of 24 hours (mL/day).
For its determination a commercial kit from Roche was used, following the manufacturer's specifications, and the results were analysed with the KC-Junior software. […]

[2] = test system: acute kidney injury produced by gentamicin; assay: Acute kidney injury produced by gentamicin

Q: For gentamicin [reference compound], which creatinine clearance [1] is on record?
A: did not alter

Q: And the “plasma concentration of creatinine” value [1]?
A: did not alter

Q: What about the urea plasma concentration [1] of the same substance?
A: did not alter

Q: And the “urinary excretion of N-acetyl glucosaminidase (NAG)” value ([2]; G alone)?
A: highly increased

Q: What about the creatinine clearance ([2]; agent alone) of the same substance?
A: drastic decrease

Q: What about the plasma creatinine ([2]; agent alone) of the same substance?
A: accumulation in the blood

Q: What about the urea plasma concentration ([2]; agent alone) of the same substance?
A: accumulation in the blood

Q: What about the “systolic blood pressure (SBP)” value ([2]; basal vs end of treatments (d 6)) of the same substance?
A: slightly increased
